Literature values as cited in publication PMC10528545.

By UniProt entry, the sequences of proteins in these tests, tags left out. Residues count along the entry.
UniProt P12956, 2-609, chain 1 of 2: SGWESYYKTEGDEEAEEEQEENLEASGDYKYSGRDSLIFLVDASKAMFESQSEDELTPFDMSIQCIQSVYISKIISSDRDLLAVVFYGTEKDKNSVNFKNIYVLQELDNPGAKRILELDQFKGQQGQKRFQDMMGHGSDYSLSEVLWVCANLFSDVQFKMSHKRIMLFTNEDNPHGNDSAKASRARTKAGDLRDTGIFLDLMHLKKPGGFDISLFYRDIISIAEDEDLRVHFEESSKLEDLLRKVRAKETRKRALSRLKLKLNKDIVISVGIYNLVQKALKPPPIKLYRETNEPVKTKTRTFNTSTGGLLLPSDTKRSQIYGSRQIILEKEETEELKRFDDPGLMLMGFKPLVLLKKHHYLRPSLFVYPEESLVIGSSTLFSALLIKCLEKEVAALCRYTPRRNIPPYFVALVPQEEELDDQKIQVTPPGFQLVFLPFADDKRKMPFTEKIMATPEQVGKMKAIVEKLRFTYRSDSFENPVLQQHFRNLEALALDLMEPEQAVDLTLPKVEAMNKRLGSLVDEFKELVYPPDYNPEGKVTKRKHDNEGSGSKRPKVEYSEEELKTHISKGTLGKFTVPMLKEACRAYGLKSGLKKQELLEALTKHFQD
UniProt P78527, whole entry: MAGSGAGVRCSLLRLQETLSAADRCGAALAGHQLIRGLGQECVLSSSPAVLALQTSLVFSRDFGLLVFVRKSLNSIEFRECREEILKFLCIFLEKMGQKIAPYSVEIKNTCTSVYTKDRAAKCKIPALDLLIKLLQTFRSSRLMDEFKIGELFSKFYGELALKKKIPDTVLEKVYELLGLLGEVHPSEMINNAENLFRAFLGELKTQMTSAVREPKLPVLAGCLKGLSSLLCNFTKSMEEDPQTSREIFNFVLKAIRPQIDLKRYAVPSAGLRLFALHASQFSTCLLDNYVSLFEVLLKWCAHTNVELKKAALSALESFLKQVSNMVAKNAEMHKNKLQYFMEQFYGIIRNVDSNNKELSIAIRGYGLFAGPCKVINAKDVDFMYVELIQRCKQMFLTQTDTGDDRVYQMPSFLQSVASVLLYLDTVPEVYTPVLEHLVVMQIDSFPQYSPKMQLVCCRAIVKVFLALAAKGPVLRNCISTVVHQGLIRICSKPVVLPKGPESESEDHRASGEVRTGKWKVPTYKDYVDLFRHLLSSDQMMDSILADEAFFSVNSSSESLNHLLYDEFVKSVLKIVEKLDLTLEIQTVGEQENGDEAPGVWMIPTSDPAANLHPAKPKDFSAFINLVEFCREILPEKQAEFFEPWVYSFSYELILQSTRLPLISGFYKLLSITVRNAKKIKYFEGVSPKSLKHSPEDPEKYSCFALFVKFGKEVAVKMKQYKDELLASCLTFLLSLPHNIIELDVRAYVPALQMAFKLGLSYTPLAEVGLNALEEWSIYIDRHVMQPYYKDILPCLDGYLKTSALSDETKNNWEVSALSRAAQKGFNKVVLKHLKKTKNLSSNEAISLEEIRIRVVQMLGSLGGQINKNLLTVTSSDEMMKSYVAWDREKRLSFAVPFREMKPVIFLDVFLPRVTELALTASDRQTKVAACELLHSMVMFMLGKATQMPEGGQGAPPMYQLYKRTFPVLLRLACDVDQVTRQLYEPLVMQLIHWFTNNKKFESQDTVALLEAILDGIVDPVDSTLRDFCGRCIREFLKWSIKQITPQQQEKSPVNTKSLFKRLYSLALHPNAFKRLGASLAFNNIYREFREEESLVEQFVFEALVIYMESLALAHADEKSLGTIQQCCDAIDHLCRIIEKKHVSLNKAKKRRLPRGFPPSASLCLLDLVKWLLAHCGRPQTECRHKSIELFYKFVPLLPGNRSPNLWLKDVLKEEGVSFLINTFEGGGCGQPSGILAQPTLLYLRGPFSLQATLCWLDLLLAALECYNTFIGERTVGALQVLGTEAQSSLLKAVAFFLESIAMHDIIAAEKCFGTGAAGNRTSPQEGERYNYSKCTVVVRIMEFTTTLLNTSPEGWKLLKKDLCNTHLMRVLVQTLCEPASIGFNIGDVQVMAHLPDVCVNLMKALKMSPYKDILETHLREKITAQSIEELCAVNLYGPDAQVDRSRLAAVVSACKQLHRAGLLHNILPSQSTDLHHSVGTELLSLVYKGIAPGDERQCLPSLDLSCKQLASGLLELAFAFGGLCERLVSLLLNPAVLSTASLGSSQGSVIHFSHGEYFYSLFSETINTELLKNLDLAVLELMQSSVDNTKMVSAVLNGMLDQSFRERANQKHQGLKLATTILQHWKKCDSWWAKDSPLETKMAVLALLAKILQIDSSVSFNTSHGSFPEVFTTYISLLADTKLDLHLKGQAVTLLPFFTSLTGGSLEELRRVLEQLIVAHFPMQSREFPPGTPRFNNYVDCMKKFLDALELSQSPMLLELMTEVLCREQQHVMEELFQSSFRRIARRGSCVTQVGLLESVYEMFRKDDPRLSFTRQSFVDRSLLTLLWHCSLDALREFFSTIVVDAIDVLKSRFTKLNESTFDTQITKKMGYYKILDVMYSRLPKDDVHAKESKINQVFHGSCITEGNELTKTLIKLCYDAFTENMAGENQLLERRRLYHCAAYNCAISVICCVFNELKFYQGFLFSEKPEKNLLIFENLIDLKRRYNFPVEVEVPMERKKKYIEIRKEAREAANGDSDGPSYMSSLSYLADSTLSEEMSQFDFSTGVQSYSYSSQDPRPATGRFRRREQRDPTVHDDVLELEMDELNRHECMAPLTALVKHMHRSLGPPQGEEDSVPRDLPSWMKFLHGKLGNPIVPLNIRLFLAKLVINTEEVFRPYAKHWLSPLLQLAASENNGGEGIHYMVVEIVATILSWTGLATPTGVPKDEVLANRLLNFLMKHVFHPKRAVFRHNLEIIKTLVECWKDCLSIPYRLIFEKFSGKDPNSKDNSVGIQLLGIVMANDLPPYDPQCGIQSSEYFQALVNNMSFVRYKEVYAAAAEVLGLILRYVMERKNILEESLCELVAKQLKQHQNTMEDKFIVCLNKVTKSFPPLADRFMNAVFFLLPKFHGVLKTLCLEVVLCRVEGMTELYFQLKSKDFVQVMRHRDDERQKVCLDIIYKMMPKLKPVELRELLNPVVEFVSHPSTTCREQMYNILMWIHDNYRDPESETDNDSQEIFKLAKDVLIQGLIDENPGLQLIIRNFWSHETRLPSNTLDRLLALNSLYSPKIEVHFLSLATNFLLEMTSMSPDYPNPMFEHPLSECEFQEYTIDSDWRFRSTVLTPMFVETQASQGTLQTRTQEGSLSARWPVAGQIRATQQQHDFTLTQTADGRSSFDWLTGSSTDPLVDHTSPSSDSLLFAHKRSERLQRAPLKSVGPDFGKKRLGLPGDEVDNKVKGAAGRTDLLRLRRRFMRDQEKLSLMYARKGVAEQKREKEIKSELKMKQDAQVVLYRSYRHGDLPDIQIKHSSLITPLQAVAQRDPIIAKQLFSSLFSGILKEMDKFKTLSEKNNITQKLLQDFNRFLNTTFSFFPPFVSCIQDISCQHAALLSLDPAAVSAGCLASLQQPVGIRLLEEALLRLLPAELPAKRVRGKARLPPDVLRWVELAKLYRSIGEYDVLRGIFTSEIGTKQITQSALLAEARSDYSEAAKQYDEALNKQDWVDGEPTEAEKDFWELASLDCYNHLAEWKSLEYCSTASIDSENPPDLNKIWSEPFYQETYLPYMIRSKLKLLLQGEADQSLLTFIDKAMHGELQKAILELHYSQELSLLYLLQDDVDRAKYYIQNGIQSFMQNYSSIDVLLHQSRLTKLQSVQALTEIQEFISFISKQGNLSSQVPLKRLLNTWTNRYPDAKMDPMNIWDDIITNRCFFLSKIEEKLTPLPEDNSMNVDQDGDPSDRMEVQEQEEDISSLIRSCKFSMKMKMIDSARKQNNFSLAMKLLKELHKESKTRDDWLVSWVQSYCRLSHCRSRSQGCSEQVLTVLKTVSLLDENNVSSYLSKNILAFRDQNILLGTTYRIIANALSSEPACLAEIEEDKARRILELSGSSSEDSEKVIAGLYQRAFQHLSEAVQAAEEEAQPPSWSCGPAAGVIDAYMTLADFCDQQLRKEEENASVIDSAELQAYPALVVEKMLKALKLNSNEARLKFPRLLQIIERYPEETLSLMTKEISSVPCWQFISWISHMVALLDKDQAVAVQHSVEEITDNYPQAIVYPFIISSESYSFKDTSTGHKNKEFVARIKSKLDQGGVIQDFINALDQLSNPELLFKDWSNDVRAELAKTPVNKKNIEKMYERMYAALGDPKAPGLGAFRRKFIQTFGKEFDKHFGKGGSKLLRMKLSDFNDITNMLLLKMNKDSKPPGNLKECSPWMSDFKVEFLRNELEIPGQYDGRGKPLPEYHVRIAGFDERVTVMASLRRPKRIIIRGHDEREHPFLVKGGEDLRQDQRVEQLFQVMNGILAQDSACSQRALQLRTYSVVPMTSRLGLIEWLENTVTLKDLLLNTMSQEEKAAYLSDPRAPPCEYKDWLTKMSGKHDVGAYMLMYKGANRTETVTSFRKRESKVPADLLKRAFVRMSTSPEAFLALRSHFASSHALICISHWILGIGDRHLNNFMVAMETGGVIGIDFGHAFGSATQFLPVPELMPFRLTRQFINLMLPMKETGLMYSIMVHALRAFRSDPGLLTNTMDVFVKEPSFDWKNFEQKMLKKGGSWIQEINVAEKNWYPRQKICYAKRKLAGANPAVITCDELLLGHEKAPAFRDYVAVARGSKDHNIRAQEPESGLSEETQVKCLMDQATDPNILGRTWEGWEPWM

Biological target: Ku (Homo sapiens) (UniProt P12956)

- Kd: 35 pM
Substance: DNA-PKcs (from UniProt P78527)
